In PubChem BioAssay AID720711 (National Center for Advancing Translational Sciences (NCATS), 2013):
Only a part is listed here, and it is no random draw. Some results for these compounds are left out of this collection, so the calls shown say nothing about other tests. The source made the active and inactive calls. The call rests on the fitted dose curve; in most records, active means well fitted activation curve with a large enough effect; inconclusive means small, poorly fitted or top-dose-only effect; inactive means no such curve, though single readings can be large or run the other way.

Chains of the proteins cited; added tags and fusions are not shown.
UniProt Q8WZA2, whole entry: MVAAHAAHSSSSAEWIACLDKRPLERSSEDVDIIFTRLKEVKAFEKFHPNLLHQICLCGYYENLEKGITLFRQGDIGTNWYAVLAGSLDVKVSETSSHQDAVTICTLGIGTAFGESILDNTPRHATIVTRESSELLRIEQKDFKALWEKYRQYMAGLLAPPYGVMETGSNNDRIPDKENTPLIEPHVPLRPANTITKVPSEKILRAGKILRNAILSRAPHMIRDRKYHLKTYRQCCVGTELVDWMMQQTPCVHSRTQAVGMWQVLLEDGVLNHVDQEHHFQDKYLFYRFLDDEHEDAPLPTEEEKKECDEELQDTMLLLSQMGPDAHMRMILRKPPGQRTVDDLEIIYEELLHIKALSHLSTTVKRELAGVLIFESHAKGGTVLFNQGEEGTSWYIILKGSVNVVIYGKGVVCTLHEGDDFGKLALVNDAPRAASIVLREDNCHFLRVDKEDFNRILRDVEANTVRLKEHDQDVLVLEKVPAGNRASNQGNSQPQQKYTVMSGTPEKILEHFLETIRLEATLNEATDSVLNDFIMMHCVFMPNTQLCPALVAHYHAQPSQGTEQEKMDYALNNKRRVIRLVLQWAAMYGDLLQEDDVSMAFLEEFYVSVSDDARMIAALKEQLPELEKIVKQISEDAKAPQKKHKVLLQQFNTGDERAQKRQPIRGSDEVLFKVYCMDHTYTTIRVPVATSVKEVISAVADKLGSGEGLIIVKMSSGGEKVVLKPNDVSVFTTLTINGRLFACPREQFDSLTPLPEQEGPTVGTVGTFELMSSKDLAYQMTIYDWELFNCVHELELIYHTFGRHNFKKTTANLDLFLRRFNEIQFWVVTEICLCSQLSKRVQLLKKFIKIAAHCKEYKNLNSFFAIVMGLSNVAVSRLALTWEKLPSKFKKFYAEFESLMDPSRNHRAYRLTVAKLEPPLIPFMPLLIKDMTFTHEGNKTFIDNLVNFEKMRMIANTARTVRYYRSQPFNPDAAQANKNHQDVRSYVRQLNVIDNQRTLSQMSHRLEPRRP

These compounds were tested against Rap guanine nucleotide exchange factor 4 (Homo sapiens) (UniProt Q8WZA2) (assay: qHTS for Agonist of cAMP-regulated guanine nucleotide exchange factor 4 (EPAC2): primary screen). Conditions: biochemical qHTS, 100% = 6.5 mM cAMP response; at 154 µM (top of the series).
From the text: In multi-cellular eukaryotic organisms, the effects of cAMP are transduced by two ubiquitously-expressed intracellular cAMP receptors, the classic protein kinase A/cAMP-dependent protein kinase (PKA/cAPK) and the more recently discovered exchange protein directly activated by cAMP/cAMP-regulated guanine nucleotide exchange factor (EPAC/cAMP-GEF). Both PKA and EPAC are ubiquitously expressed in all tissues, and an increase in intracellular cAMP levels will lead to the activation of both PKA and EPAC. Therefore, careful dissections of the individual role and relative contribution of EPAC and PKA within the overall cAMP signaling in various model systems are critical for further elucidating the mechanism of cAMP signaling. To date no EPAC-specific antagonists and agonist, as well as isoform-specific agonists have been reported, and developing EPAC-specific pharmacological probes to determine the physiological functions that EPAC play in the overall cAMP-mediated signaling remains a major challenge within the research field. Furthermore, identified regulators of EPAC may lead to new mechanism-based therapeutic strategies specifically targeting the EPAC / cAMP-signaling components as EPAC has been implicated to play important roles in major human pathological conditions such as diabetes, heart disease, and cancer.
This qHTS will be used to screen the Molecular Libraries Small Molecule Repository (MLSMR) as a concentration-titration series using the NCGC unique quantitative screening (qHTS) platform to find activators for EPAC2. In addition, this assay will also be used as a counterscreen for the EPAC1 qHTS. This fluorescent based assay is developed and validated for EPAC2 that measures exchange using EPAC effector Rap1 complex with BODIPY-GDP, a GDP analog with a tethered fluorophores. Activators are identified by monitoring the change in fluorescence signal as the exchanged free BODIPY-GDP has a reduced fluorescence compared to Rap1-bound BODIPY-GDP. […] in signal (activation) is the desired outcome for the EPAC2 agonist while no activity in this assay is desired for the EPAC1 agonist counterscreen.
[1] de Rooij, J., Zwartkruis, F. J., Verheijen, M. H., Cool, R. H., Nijman, S. M., Wittinghofer, A., and Bos, J.L. (1998) Nature 396, 474-477
[2] Kawasaki, H., Springett, G. M., Mochizuki, N., Toki, S., Nakaya, M., Matsuda, M., Housman, D. E., and Graybiel, A. M. (1998) Science 282, 2275-2279
NIH Chemical Genomics Center [NCGC]
NIH Molecular Libraries Probe Centers Network [MLPCN]
Assay Submitter (PI): Xiaodong Cheng, The University of Texas, Medical Branch
Briefly, three uL of reagents (100 nM EPAC2, 250 nM RAP1B-BODIPY-GDP, 50 uM GDP) were dispensed into a 1536-well Greiner black solid-bottom medium binding assay plate. Controls and test compounds (23 nL) were transferred to the plate via a Kalypsys pin tool equipped with a 1536-pin array. The plates were centrifuged at 1,000 rpm for 15 seconds followed by 5 minute incubation at room temperature. The assay plates were read at 5 minute intervals for 30 minutes in the ViewLux plate reader using 480nm excitation and 540nm emission filters. The results were normalized to the agonist positive control of 6.5 mM cAMP.
Further: nearly all actives have a fitted effect of over 50% in size.

| SMILES | activation |
| --- | --- |
| Cc1ccccc1C(=O)NCC1(N2CCCCC2)CCCCC1 | inactive: 9.7% |
| CN(C)c1ccc(C(=O)NCC2(N(C)C)CCCCC2)cc1 | inactive: -8.38% |
| CN(C)C1CCCC1OC(=O)C(O)(c1ccccc1)c1ccccc1 (stereo not given) | inactive: -7.22% |
| C=CCN1CCN(CCOC(=O)C(O)(c2ccccc2)c2ccccc2)CC1 | inactive: -7.94% |
| O=C(NCC1(N2CCCCC2)CCCCC1)c1cc(F)c(F)cc1Cl | inactive: 11.2% |
| COc1ccc(C(=O)NCC2(N(C)C)CCCCC2)cc1 | inactive: 5.75% |
| CCN1CCCC(OC(=O)C2(O)c3ccccc3C=Cc3ccccc32)C1 (stereo not given) | inactive: -6.36% |
| Cc1cc(C(=O)NCC2(N3CCCCC3)CCCCC2)ccc1[N+](=O)[O-] | inactive: 3.62% |
| O=C(NCC1(N2CCCCC2)CCCCC1)c1cccc(Br)c1 | inactive: 9.61% |
| O=C(NCC1(N2CCCCC2)CCCCC1)c1cc([N+](=O)[O-])ccc1Cl | inactive: -3.27% |
| CN1[C@@H]2CC[C@H]1CC(OC(=O)C(O)(c1ccccc1)c1ccccc1)C2 (stereo not given in full) | inactive: 3.09% |
| CCN(CC)CC(C)C(C)OC(=O)C(O)(c1ccccc1)c1ccccc1 (stereo not given) | inactive: -2.09% |
| COc1cc(SC)ccc1C(=O)NCC1(N(C)C)CCCCC1 | inactive: 5.02% |
| CC(C)N1C(=O)CC2(CCN(CCOC(=O)C(O)(c3ccccc3)c3ccccc3)CC2)C1=O | inactive: -8.83% |
| Cc1ccc(C(=O)NCC2(N3CCCCC3)CCCCC2)cc1 | inactive: 1.37% |
| C=C(C)C#CC(O)(C(=O)OC1CCN(C)CC1)c1ccccc1 (stereo not given) | inactive: 6.51% |
| COc1ccc(Br)c(C(=O)NCC2(N3CCCCC3)CCCCC2)c1 | inactive: 3.69% |
| CC(C)Oc1ccc(C(=O)NCC2(N(C)C)CCCCC2)cc1 | inactive: 7.83% |
| O=C(OCCN1CCCC1)C(O)(c1ccccc1)c1ccccc1 | inactive: 5.02% |
| CN(C)c1cccc(C(=O)NCC2(N(C)C)CCCCC2)c1 | inactive: 4.65% |
| CN(C)C1(CNC(=O)c2ccc(Br)cc2)CCCCC1 | inactive: 11.7% |
| COc1cc(C(=O)NCC2(N(C)C)CCCCC2)c([N+](=O)[O-])cc1OC | inactive: 6.68% |
| COc1cccc(C(=O)NCC2(N3CCCCC3)CCCCC2)c1 | inactive: 0.111% |
| COc1ccc(Cl)cc1C(=O)NCC1(N(C)C)CCCCC1 | inactive: 9.83% |
| O=C(NCC1(N2CCCCC2)CCCCC1)c1cccc(Cl)c1 | inactive: 12.2% |
